This note sets out measurements from PubChem BioAssay AID1469 (National Center for Advancing Translational Sciences (NCATS), 2008).

Sequences of proteins named here, by UniProt entry; tags and fusion partners are left off. A change or cut given only in a name is not applied to a line headed by its entry.
UniProt P10828: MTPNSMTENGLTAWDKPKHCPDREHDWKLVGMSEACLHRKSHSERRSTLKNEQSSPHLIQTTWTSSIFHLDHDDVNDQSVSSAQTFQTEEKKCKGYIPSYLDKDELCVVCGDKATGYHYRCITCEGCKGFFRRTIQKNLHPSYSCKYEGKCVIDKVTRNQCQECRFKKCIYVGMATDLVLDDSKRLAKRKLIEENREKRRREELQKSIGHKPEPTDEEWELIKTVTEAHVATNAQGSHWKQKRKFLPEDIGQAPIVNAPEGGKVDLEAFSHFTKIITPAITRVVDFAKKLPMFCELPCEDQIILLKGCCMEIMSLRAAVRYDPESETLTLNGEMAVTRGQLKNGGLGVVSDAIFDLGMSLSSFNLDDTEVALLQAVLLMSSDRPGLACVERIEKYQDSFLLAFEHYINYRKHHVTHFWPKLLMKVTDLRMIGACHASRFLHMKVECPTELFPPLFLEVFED

Values joined by “and” are separate entries in the source; they are usually repeats but may differ in a detail not shown here. Equal values may be shown once. Only a part is listed here, and it is no random draw. Active and inactive are the calls of the source. The call rests on the fitted dose curve; in most records, active means well fitted inhibition curve with a large enough effect; inconclusive means small, poorly fitted or top-dose-only effect, or effect the other way; inactive means flat fitted curve, though single readings scatter.

For the test, the target named is Thyroid hormone receptor beta (Homo sapiens) (UniProt P10828). The test can be described thus: qHTS for Inhibitors of the Interaction of Thyroid Hormone Receptor and Steroid Receptor Coregulator 2.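 Further: plate controls were bound peptide for no effect and peptide without receptor for full effect; nearly all actives have a fitted effect of over 50% in size.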 The conditions noted are these: TRbeta-SRC2 peptide binding, fluorescence polarization, receptor liganded with 1 µM T3. An excerpt:
NIH Molecular Libraries Probe Production Network [MLPCN]
NIH Chemical Genomics Center [NCGC]
Assay Provider: R. Kip Guy, St. Jude Children's Research Hospital
Thyroid receptor (TR) regulates many homeostatic processes including basal metabolism, cardiovascular function, body weight, and lipid trafficking. TR modulators are potential therapeutics for obesity and hyperlipidemias but current thyroid analogs have undesirable side effects, particularly cardiac stimulation. To identify inhibitors that specifically prevent the interaction of TR with the steroid receptor coregulator 2 (SRC2), a fluorescence polarization assay was screened. This assay detects interaction of the ligand-binding domain of human TRb with a Texas Red labeled SRC2 peptide, corresponding to a 20 amino acid region of the nuclear receptor interaction domain (Arnold et al., 2006). Small molecule inhibitors that block the interaction of TR and SRC2 are detected by a decrease in fluorescence polarization.
Arnold, L. A.; Estebanez-Perpina, E.; Togashi, M.; Shelat, A.; Ocasio, C. A.; McReynolds, A. C.; Nguyen, P.; Baxter, J. D.; Fletterick, R. J.; Webb, P.; Guy, R. K. A high-throughput screening method to identify small molecule inhibitors of thyroid hormone receptor coactivator binding. Sci STKE 2006, p 13.
NCGC Assay Protocol Summary:
For screening, 5 uL/well 0.6 uM TRb and 20 nM SRC2 Texas Red in protein buffer (20mM Tris hydrochloride, 100mM NaCl, 10% glycerol, 1mM EDTA, 0.01% NP-40, 1mM DTT, 1uM T3 and 5% DMSO) was dispensed into black solid 1536-well plates (Grenier) using a solenoid-based dispenser. Following transfer of 23 nL compound or DMSO vehicle by a pin tool, the plates were centrifuged 15 s at 1000 RPM and incubated 5 hr at ambient temperature. […] Data were normalized to unbound (all components except TRb) and bound SRC2 Texas Red controls. In this assay, we provide % activity data for each concentration as well as potencies for the active compounds.
Keywords: NIH Roadmap, MLPCN, MLI, MLSMR, qHTS, NCGC, qHTS, thyroid hormone receptor, steroid receptor coactivator, fluorescence polarization
Background: In qHTS, concentration-response curves come from the screen itself.

The mark [1] stands for this setting: at 106 µM (top of the series) unless noted.

For `O=P1(Nc2ncccn2)COc2ccccc2OC1`, under setting [1], the activity change, negative = inhibition is inactive: -17.8%.

With `Nc1cccc([As](=O)(O)c2ccccc2)c1`, the activity change, negative = inhibition under setting [1] is inactive: -1.05%.

For `O=[As](O)(c1cccs1)c1cccs1`, the activity change, negative = inhibition under setting [1] was inactive: -1.36%.

As for `O=P1(Nc2ccc(Br)cn2)COc2ccccc2OC1`, under setting [1], the activity change, negative = inhibition was inactive: 15.5%.

Take `Cc1nn(-c2ccccc2)c2c1P(=O)(N1CCOCC1)N(C)C(c1ccccc1)=N2` (stereo unspecified): under setting [1], the activity change, negative = inhibition was inactive: 0.181%.

With `CC1CCC(C(C)C)C(OP(=O)(Nc2ccccn2)c2ccccc2)C1` (stereo unspecified), the activity change, negative = inhibition under setting [1] is inactive: 4.88%.

`CN(C)C1(CNC(=O)c2ccc(S(C)(=O)=O)cc2)CCCCC1`: the activity change, negative = inhibition under setting [1] is inactive: -0.284%.

Turning to `CC(C)/C=N\N=C(\N)N[N+](=O)[O-]`, the activity change, negative = inhibition under setting [1] was inactive: 2.59%.

As to `O=[As](O)(c1ccccc1Br)c1ccccc1Br`, the activity change, negative = inhibition under setting [1] was inactive: 1.66%.

On to `O=P1(Nc2ccccn2)COc2ccccc2OC1`, for which the activity change, negative = inhibition under setting [1] is inactive: -5.73%.

For the molecule `CCOP(=O)(Nc1ccc(C)cn1)OCC`, under setting [1], the activity change, negative = inhibition is inactive: 4.17%.

In the case of `Clc1n[nH]nc1-c1nn[nH][15n]1`, the activity change, negative = inhibition under setting [1] is inactive: -3.57%.

Regarding `CC(C)(C)C(=O)NC(Sc1ncccn1)C(Cl)(Cl)Cl` (stereo unspecified), under setting [1], the activity change, negative = inhibition is inactive: 2.26%.

As to `COP(=S)(Cl)OC`, under setting [1], the activity change, negative = inhibition is inactive: -1.75% [at 201 µM].

For `Nc1cccc2c([As](=O)(O)O)cccc12`, the activity change, negative = inhibition under setting [1] was inactive: -13%.

`Cc1ccc(NCCc2c([N+](=O)[O-])cc([N+](=O)[O-])cc2[N+](=O)[O-])cc1`: under setting [1], the activity change, negative = inhibition is inactive: 6.26%.

On to `CCCOP(=S)(Nc1nc(N)cc(=O)[nH]1)OCCC`, for which the activity change, negative = inhibition under setting [1] was inactive: -3.06%.

Turning to `COc1cc(C2NCCC3(OCCO3)C2(C)C)cc(OC)c1OC` (stereo unspecified), the activity change, negative = inhibition under setting [1] is inactive: 0.686%.

On to `CCOP(=O)(Nc1cccc2ccccc12)OCC`, for which the activity change, negative = inhibition under setting [1] was inactive: -8.37%.

In the case of `O=C(OC1CN2CCC1CC2)c1ccc(Cl)cc1` (stereo unspecified), the activity change, negative = inhibition under setting [1] is inactive: 1.03%.

For the molecule `CN(C(=O)Cc1ccc(Cl)c(Cl)c1)[C@@H]1CC[C@]2(CCCO2)C[C@H]1N1CCCC1`, under setting [1], the activity change, negative = inhibition was inactive: 4.76% and inactive: -4.19%.

On to `O=[As](O)(O)c1cccnc1`, for which the activity change, negative = inhibition under setting [1] is inactive: -4.35%.

As for `COc1cc(C(=O)NCC2(N3CCOCC3)CCCCC2)cc(Cl)c1OC(C)C`, under setting [1], the activity change, negative = inhibition was inactive: 3.42%.

Take `O=[As](O)(c1cccc(O)c1)c1cccc(O)c1`: under setting [1], the activity change, negative = inhibition is inactive: 6.06%.

For `ClP(Cl)c1ccccc1`, under setting [1], the activity change, negative = inhibition was inactive: -2.71% [at 201 µM].

Take `NC(=O)Nc1ccc([As](=O)(O)O)cc1`: the activity change, negative = inhibition (at 53 µM (top of the series)) was inactive: -0.331%; the activity change, negative = inhibition (at 106 µM (top of the series)) is inactive: 7.79% and inactive: 5.02%.

In the case of `O=[N+]([O-])CC(O)c1ccc([N+](=O)[O-])cc1` (stereo unspecified), the activity change, negative = inhibition under setting [1] was inactive: 7.6%.

With `CN(C(=O)Cc1ccccc1)[C@@H]1CC[C@]2(CCCO2)C[C@H]1N1CCCC1`, the activity change, negative = inhibition under setting [1] was inactive: 3.61% and inactive: -9.51%.

For `CCOP1(=S)c2c(C)nn(CCC#N)c2N=C(c2ccc(F)cc2)N1C` (stereo unspecified), the activity change, negative = inhibition under setting [1] is inactive: 9.34%.

In the case of `O=[N+]([O-])c1ccc2c(c1)nnn2O`, the activity change, negative = inhibition under setting [1] was inactive: 0.524%.

Take `CCOP1(=S)c2c(C)nn(CCC#N)c2N=C(c2ccccc2F)N1C` (stereo unspecified): the activity change, negative = inhibition under setting [1] is inactive: -0.125%.

`O=P(Nc1nccs1)(Oc1ccccc1)Oc1ccccc1`: the activity change, negative = inhibition under setting [1] was inactive: -1.03%.

Regarding `O=P(Nc1nccs1)(c1ccccc1)c1nc2ccccc2s1` (stereo unspecified), under setting [1], the activity change, negative = inhibition is inactive: 1.17%.

Take `CS(=O)(=O)c1cc([N+](=O)[O-])c2no[n+]([O-])c2c1`: under setting [1], the activity change, negative = inhibition was inactive: 0.54%.

With `Nc1ccccc1[As](=O)(O)c1ccccc1`, the activity change, negative = inhibition under setting [1] was inactive: 0.0225%.

For `O=C(O)COc1ccc([As](=O)(O)O)cc1[N+](=O)[O-]`, under setting [1], the activity change, negative = inhibition is inactive: -1.15%.

On to `ClCCSc1nnc(-c2cccnc2)o1`, for which the activity change, negative = inhibition under setting [1] was inactive: -10.4%.

`CC(C)c1ccc(OP(=O)(Nc2ccccn2)Oc2ccccc2F)cc1` (stereo unspecified): the activity change, negative = inhibition under setting [1] was inactive: -2.51%.

For the molecule `CC(C)NC(=O)NP(=O)(Oc1ccccc1)Oc1ccccc1`, under setting [1], the activity change, negative = inhibition was inactive: 0.661%.

Consider `CCN(CC)C(=S)SC(NC=O)C(Cl)(Cl)Cl` (stereo unspecified), for which, under setting [1], the activity change, negative = inhibition is inactive: 0.74%.

For `O=[N+]([O-])c1cc([N+](=O)[O-])c(-c2ccn[nH]2)s1`, the activity change, negative = inhibition under setting [1] was inactive: 5.1%.

With `C[As](=O)(O)c1cccc(C(=O)O)c1`, the activity change, negative = inhibition under setting [1] is inactive: -6.75%.

Take `O=[As](O)(c1ccc(O)cc1)c1ccccc1O`: the activity change, negative = inhibition under setting [1] was inactive: 13.9%.

Take `Cc1ccc(OP(=O)(Nc2ccc([N+](=O)[O-])cn2)Oc2ccc(C)cc2)cc1`: the activity change, negative = inhibition under setting [1] is inactive: -3.59%.

For `Cc1ccc2nc3c(c(C)c2c1)CC(C(Cl)Cl)S3` (stereo unspecified), the activity change, negative = inhibition under setting [1] was inactive: 0.299%.

As to `COc1ccc(N/C(=N/P(=O)(N2CCOCC2)N2CCOCC2)N2CCOCC2)cc1`, the activity change, negative = inhibition under setting [1] is inactive: -7.92%.

As to `Cc1c2c(nc3ccccc13)SC(C(Cl)Cl)C2` (stereo unspecified), the activity change, negative = inhibition under setting [1] was inactive: -15%.

`O=C(OC1CN2CCC1CC2)C12CC3CC(CC(C3)C1)C2` (stereo unspecified): under setting [1], the activity change, negative = inhibition is inactive: 1.93%.

For the molecule `Cc1cc(=O)[nH]c(N[N+](=O)[O-])n1`, the activity change, negative = inhibition under setting [1] was inactive: 2.16%.

As to `COc1ccc2nc(NP(=O)(c3ccccc3)c3ccccc3)sc2c1`, the activity change, negative = inhibition under setting [1] was inactive: -6.58%.
